In ChEMBL document CHEMBL5661980, “Discovery of OSI-906: a selective and orally efficacious dual inhibitor of the IGF-1 receptor and insulin receptor” (Future Med Chem, 2009) one finds IC50 and ERH data, which are given here for 1 molecule.

SMILES strings stand for the structures.

Series [1] can be described thus: Inhibition of PKA (unknown origin) in presence of ATP Km treated at 2 hrs followed by IGF1 ligand addition for 15 mins by ELISA analysis. Set-up: species or system Homo sapiens. In general terms: In an ELISA, binding on a coated surface is turned into a signal by an enzyme label.
Series [2] is described as follows: Inhibition of ABL (unknown origin) in presence of ATP Km treated at 2 hrs followed by IGF1 ligand addition for 15 mins by ELISA analysis. Set-up: species or system Homo sapiens.
A short description of series [3]: Microsomal stability in rat liver microsomes assessed as extraction ratio in presence of NADPH for 0 to 40 mins by LC-MS/MS analysis. The class given is ADME, Microsome. The following applies: time 0-40 min. On the technique in general: Liver microsomes are vesicles of endoplasmic reticulum, rich in cytochrome P450 enzymes.
Series [4] is described as follows: Inhibition of p70S6K (unknown origin) in presence of ATP Km treated at 2 hrs followed by IGF1 ligand addition for 15 mins by ELISA analysis. Set-up: species or system Homo sapiens.
Series [5] can be described thus: Inhibition of FGFR1/2 (unknown origin) in presence of ATP Km treated at 2 hrs followed by IGF1 ligand addition for 15 mins by ELISA analysis. Set-up: species or system Homo sapiens.
Series [6] can be described thus: Microsomal stability in dog liver microsomes assessed as extraction ratio in presence of NADPH for 0 to 40 mins by LC-MS/MS analysis. The format is ADME, Canis lupus familiaris, Microsome. The following applies: time 0-40 min.

Consider `C[C@]1(O)C[C@@H](c2nc(-c3ccc4ccc(-c5ccccc5)nc4c3)c3c(N)nccn32)C1` [LINSITINIB], for which the IC50 in series [1], in series [2], in series [4] and in series [5] was greater than 10 µM in each case. Besides, the ERH is on record as 0.41 in series [3] and 0.49 in series [6].

As usually defined, the IC50 is the point on the concentration scale where inhibition reaches its midpoint.
